pKd: −log10 of the molar value.
Molecular target: Translocator protein (Homo sapiens, UniProt P30536)
Test: Binding affinity to human TSPO

The chains behind the UniProt entries cited, without tags or fusion partners.
UniProt P30536, whole entry: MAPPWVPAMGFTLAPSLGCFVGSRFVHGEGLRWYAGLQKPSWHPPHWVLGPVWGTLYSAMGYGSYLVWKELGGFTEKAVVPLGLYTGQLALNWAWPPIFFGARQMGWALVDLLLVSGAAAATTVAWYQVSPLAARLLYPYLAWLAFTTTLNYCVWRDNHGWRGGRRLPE

CC[C@@H](C)N([11CH3])C(=O)c1cc2ccccc2c(-c2ccccc2Cl)n1
pKd: 8.70
